The results in this text go back to US6858621B2, “2-(quinolonyl)-fused heterocycles as androgen receptor modulators” (Ortho-McNeil Pharmaceutical, Inc., priority 2002, dated 2005).

Amino acid sequences for entries named in this document (tags omitted). Residues count along the entry.
UniProt P15207, 651-882 limits assumed: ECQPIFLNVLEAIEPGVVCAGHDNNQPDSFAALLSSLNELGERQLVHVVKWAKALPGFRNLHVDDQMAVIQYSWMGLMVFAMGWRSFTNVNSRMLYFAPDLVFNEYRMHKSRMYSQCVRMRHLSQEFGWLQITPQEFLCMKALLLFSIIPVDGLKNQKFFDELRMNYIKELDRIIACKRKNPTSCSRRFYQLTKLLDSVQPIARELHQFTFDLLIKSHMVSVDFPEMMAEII

The assay deals with androgen receptor LBD (Panvera) (Rattus norvegicus, UniProt P15207). In words: Androgen Receptor Filtration Binding Assay (Panvera receptor). To be noted: read-out: Binding; Panvera receptor data; 0.5 nM [3H] R1881 tracer. As to the method: In Vitro Assay—Androgen Receptor Filtration Binding Assay
The assay was run on a 96 well plate with each well filled with total reaction volume 150 μL, of a solution containing 5 pmol androgen receptor LBD (Panvera) or […] of freshly prepared rat cytosol, 0.5 nM [^3H] R1881 tracer (NEN), 1.5 μL (10 μM) test compound or vehicle (diluted in 30% DMSO, final concentration of DMSO 0.75%) and […] of TED buffer. (TED buffer contains 10 mM Tris.HCl pH 7.4, 1 mM sodium molybdate (60 mg/250 mL), 1.5 mM EDTA, 1 mM DTT and 10% (v/v) glycerol.)
On day one, the solution containing receptor, tracer and TED buffer was distributed onto a 96 well plate. Diluted test compound or control vehicle was then added to individual wells and the plate incubated ay 4° C. overnight.
On day two, to each well was then added 20 μL human γ-globulin (ICN 823102), prepared at 25 mg/ml in TE pH 8.0 and 55 μL 40% polyethylene glycol 8000 (J T Baker U222-08), prepared in TE pH 8.0. The plate was incubated at 4° C. for 60 minutes. During incubation, the harvester was rinsed with 10% PEG 8000, prepared in TE pH 8.0 and the GF/C Unifilter-96 prewet with 10% PEG. The binding reaction was filtered, the retentate was washed three times with 10% PEG and dried under vacuum for about four minutes, then dried at 50° C. for 5 min and then bottom sealed. 25 μL of Microscint-20 (Packard) was added to the filter wells and top sealed. The plate wells were then counted on a TopCount (Packard).
Representative compounds of the present invention were tested for binding to the androgen receptor according to the procedure described above with results as listed in Table 3. % Inhibition values less that 0% indicate no binding at the […] level. The negative number(s) are a result of experimental error from the low number of counts detected.
Regarding `O=c1cc(C(F)(F)F)c2c3c(ccc2[nH]1)S(=O)(=O)CCN3`, the IC50 was found to be 63 µM. The same measure for `O=c1cc(C(F)(F)F)c2c3c(ccc2[nH]1)SCCN3`: 7.2 µM; for `Nc1ccc2c3c1c(C(F)(F)F)cc(=O)n3CCS2`: 24 µM. In the case of `Nc1ccc2c3c1C(O)(C(F)(F)F)CC(=O)N3CCS2` (centres unmarked), the IC50 was 83 µM. For the compound `O=c1cc(C(F)(F)F)c2c3c(ccc2[nH]1)OCCN3`, the IC50 is 12 µM.
